Results on seven compounds are retold here after PubChem BioAssay AID567 (The Scripps Research Institute Molecular Screening Center, 2006).

Chains of the proteins cited; added tags and fusions are not shown.
UniProt P08908, whole entry: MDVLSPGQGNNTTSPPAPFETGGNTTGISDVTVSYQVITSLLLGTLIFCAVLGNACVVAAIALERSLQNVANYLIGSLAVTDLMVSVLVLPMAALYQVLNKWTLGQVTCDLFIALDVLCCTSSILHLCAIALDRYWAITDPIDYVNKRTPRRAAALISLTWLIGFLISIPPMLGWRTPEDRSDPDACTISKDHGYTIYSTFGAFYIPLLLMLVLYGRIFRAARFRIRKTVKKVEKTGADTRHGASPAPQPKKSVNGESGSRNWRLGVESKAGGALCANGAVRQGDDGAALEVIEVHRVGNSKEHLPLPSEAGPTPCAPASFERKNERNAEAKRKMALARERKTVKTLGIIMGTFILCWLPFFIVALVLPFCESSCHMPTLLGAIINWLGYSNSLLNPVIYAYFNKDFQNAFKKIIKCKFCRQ

The entries are a selection whose mix differs from that of the whole data set. Active and inactive are the calls of the source.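 How the source made its calls: active means activation above the screen-wide mean activation plus 3 SD (cut at about 19% in these data); inactive means the rest.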

For the assay, the target named is 5-hydroxytryptamine receptor 1A (Homo sapiens) (UniProt P08908). In words: human 5-HT1a receptor agonists, primary screen, cell-based, CHO, Ga15 NFAT-bla reporter (AID 567).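 Further: 0% = DMSO wells and 100% = 5-CT at EC100.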 To be noted: CHO 5-HT1a Ga15 NFAT-bla reporter, FRET ratio; at 10 µM; active compounds read high; 0% basal, 100% maximal reference agonist.
`CCC(CO)(C(=O)OC1CN2CCC1CC2)c1ccccc1` (configuration not stated): the activation was inactive: -3.88%.
Consider `CCOc1ncccc1C(=O)NCC1(N2CCOCC2)CCCCC1`, for which the activation was inactive: -0.7%.
With `Fc1ccccc1NC1CCN(Cc2ccccc2)CC1` the figure was inactive: 0.43%.
Consider `N/C(=N\O)c1c(N)no[n+]1[O-]`, for which the activation was inactive: 1.1%.
`N#CC1(Nc2ccccc2)CCN(CCc2ccccc2)CC1`: the activation was inactive: -0.96%.
Turning to `COc1ccc(NC2CCN(CCc3ccccc3)CC2)c(OC)c1`, the activation is inactive: -0.71%.
With `O=C(OC1CN2CCC1CC2)C1c2ccccc2Oc2ccccc21` (configuration not stated), the activation is inactive: -1.68%.
